We go through 1 substance from patent US10064954B2, “Polymer-cyclodextrin-lipid conjugates” (priority 2015, dated 2018).

The format of this data set is physicochemical. On the procedure: 1% (w/v) of propofol was prepared in a saline based solution with different PEG-carbohydrate conjugates. Table 6 listed the minimum concentration of the conjugates required to solublize propofol as a solubility test reference.

On to “cholesterolpropanediamine-β-cyclodextrin mPEG12”, for which the “Concentration (% w/v)” value amounted to 2.2 % w/v.
